Target: GLP-1 receptor (RINm5f cell membranes) (UniProt P32301)
Assay: cell-based or functional assay

Substance: exendin-4 (peptide)
- GLP-1 Cyclase EC50: 0.27 nM

From EP2264064A1
